Data on one molecule can be found in patent US20070155720A1 (published 2007).

By UniProt entry, the sequences of proteins in these tests, tags left out. Where a name states a change or a piece, a line headed by the entry shows the natural chain unless it says otherwise.
UniProt P61169, whole entry: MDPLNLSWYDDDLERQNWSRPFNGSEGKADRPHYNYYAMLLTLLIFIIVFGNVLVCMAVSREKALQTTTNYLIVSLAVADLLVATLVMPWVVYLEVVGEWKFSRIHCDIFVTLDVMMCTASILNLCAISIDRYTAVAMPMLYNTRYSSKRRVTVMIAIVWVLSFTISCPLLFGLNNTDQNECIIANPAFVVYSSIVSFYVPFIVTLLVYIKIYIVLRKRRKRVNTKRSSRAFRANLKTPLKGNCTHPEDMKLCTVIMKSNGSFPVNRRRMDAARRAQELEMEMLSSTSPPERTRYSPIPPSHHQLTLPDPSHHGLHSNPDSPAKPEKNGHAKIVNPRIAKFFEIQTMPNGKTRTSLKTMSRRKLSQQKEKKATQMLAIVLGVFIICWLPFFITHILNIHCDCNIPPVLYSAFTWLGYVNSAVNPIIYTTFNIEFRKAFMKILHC

The term Ki denotes a measure of affinity in units of concentration, obtained from inhibition or displacement. Higher therefore signals weaker binding.

The target in this assay is D2L receptor (Rattus norvegicus, UniProt P61169). Briefly: biochemical.

Regarding `Cl.Oc1cc2c(cc1O)[C@@H]1c3ccccc3CN[C@H]1CC2` (relative stereo) [Compound 6a, Trans-10,11-dihydroxy-5,6,6a,7,8,12b-hexahydrobenzo[a]phenanthridine hydrochloride], the Ki stood at 183 nM.
